# Measured affinities in a library of Ab-14 light chain variants

Reference: Engelhart et al. 2022, doi:10.1038/s41597-022-01779-4. File: FLAb, binding data.

The target is the same throughout: PDVDLGDISGINAS, from the HR2 region of SARS-CoV-2 spike.

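The parent was found by panning a naive human phage display library on the peptide. AAYL50 was designed without a model: most single CDR substitutions and a random sample of double and triple ones. In AlphaSeq, yeast of one mating type display the scFv and yeast of the other type display the target. Mating (16 h, 30 °C) was followed by selection of diploids and sequencing of their barcodes. Read counts were normalised to the haploid input and turned into Kd by a linear fit to BCL2-family pairs of known affinity, for each replicate. There are three technical replicates.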

Parent: Ab-14, a human scFv built as VH, a (GGGGS)3 linker, VL. Only the CDRs of the light chain vary.
VH: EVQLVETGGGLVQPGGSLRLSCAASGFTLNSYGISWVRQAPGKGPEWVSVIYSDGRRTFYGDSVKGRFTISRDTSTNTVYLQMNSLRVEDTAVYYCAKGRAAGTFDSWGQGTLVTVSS
VL: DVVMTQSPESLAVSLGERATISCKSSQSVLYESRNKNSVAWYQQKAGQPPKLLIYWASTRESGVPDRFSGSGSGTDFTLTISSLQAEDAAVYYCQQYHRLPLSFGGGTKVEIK

The parent's light chain CDRs are KSSQSVLYESRNKNSVA, WASTRES, QQYHRLPLS; each variant's own CDRs replace them letter for letter. Affinities are written as log10 Kd with Kd in nM; a lower number is a better binder. Averages over replicates are reported, and they cover detected replicates only. An entry "n.d." has no value in the source: the pair was not observed among the diploids in that replicate. This suggests poor binding but is not conclusive. Background: pairings of library AAYL50 with three empty control strains gave a value in 18% of cases (median 4.19, 5th percentile 2.99). Values in that range, when seen in few replicates, are hard to tell from nonspecific mating. For each scFv, signals with the empty controls are counted beside the result, with their mean in brackets. For reference, the parent read 0.65 as the reference entry and 1.68 as a member of this library.

| CDR-L1 | CDR-L2 | CDR-L3 | log10 Kd, replicates | mean, log10 nM | empty controls |
|---|---|---|---|---|---|
| KSSQSVLTESRNKNSVA | WASTRVS | QQYHRLTLS | n.d. / 4.12 / n.d. | 4.12 | 1/9 (3.46) |
| KSSQSWLYESCNKNSVA | WASTREF | QQYHRLPLS | 3.18 / 2.96 / 2.23 | 2.79 | 1/9 (2.48) |
| KSSQSILYESRNKNSVA | SASTRES | QQYHRLPLS | -0.06 / 0.21 / 0.07 | 0.07 | 0/9 |
| KSSQSVLYESRNKNSVA | TTSTRES | QCYHRLPLS | n.d. / 3.06 / n.d. | 3.06 | 1/9 (3.95) |
| KSSQFVLYNSRNCNSVA | WASTRES | QQYHRLPLS | 1.94 / 1.67 / 1.76 | 1.79 | 0/9 |
| KSSQSVLYESRNQNSVA | WAMTRES | QQYHQLPLS | 1.24 / 1.73 / 1.59 | 1.52 | 1/9 (4.77) |
| KSSFSVLYESRNKQSVA | WASTRES | QQYHRLPES | n.d. / n.d. / n.d. | n.d. | 0/9 |
| KSSQSVLCESRNKNSVA | WASTRES | NQYHRNPLS | n.d. / n.d. / 3.38 | 3.38 | 0/9 |
| RSSQSVLYESRNKNSVQ | WASTRES | QQYHRLPLI | n.d. / n.d. / n.d. | n.d. | 1/9 (4.76) |
| KSSYSVLYESRNKLSVA | WASGRES | QQYHRLPLS | 3.68 / 4.23 / n.d. | 3.95 | 3/9 (4.46) |
| KSSQSVLYESRNKNSVA | WASTRES | GQHRRLPLS | n.d. / 3.95 / 5.77 | 4.86 | 3/9 (3.22) |
| KSSQSVLYESRNVNSVA | WASTRVS | QQYMRLPLS | 0.19 / 0.51 / 0.36 | 0.35 | 1/9 (5.15) |
| KSSQSRLYESRNKNGVA | WASTRES | QQHHRLPLS | n.d. / n.d. / n.d. | n.d. | 3/9 (3.79) |
| MASQSVLYESRNKNSVA | WASTRES | QQYHRLPLS | 1.03 / 1.16 / 1.15 | 1.11 | 1/9 (4.45) |
| KSSQSVLYESRNKNYVA | WLSTRES | QQAHRLPLS | n.d. / n.d. / n.d. | n.d. | 1/9 (3.47) |
| KSSVSVLYESRNKNSVA | WASTRES | QQYQRLPLE | 1.08 / 1.28 / 1.28 | 1.21 | 4/9 (3.98) |
| KSSQSVLYESRNMNSYA | WASRRES | QQYHRLPLS | 3.54 / 3.41 / 4.02 | 3.66 | 1/9 (4.77) |
| KSSQSVAYESRNDNSVA | WASTEES | QQYHRLPLS | n.d. / n.d. / n.d. | n.d. | 0/9 |
| KSSMSVLYESRCKNSVA | WASTRES | QQYGRLPLS | 1.26 / 1.12 / 1.21 | 1.20 | 1/9 (3.06) |
| KNSQSVLYESRNKNSVA | WASTRES | QQYIRLPLS | n.d. / 4.75 / n.d. | 4.75 | 1/9 (3.40) |
| KSSQSVLYGSMNKNSVA | WASTPES | QQYHRLPLS | 1.17 / 1.84 / 1.73 | 1.58 | 0/9 |
| KSSQSVLLESCNKNSVA | WASTRES | QQRHRLPLS | 0.93 / 1.08 / 1.43 | 1.15 | 2/9 (3.83) |
| KSSQSVLYESRNKDFVA | WASERES | QQYHRLPLS | 3.52 / 5.13 / n.d. | 4.32 | 3/9 (4.68) |
| KSSQSVLYESRNRNSVA | WASLRES | QQYHRLPLS | 1.09 / 1.27 / 0.96 | 1.11 | 1/9 (3.71) |
| KSSQSVLYESRNKNSVA | CASTRES | QQIHRLPDS | 2.22 / 2.28 / 2.20 | 2.23 | 6/9 (4.06) |
| KSSWSVLYESRNKNSNA | WAETRES | QQYHRLPLS | n.d. / 2.87 / n.d. | 2.87 | 0/9 |
| KSNQQVLYESRNKNSVA | WASTRES | QQYHRLPLS | 0.99 / 1.23 / 1.34 | 1.18 | 2/9 (3.75) |
| KSSQSVLTESRNKNSVA | WASTRES | QQYHRLDLS | 1.08 / 1.45 / 1.11 | 1.21 | 4/9 (3.85) |
| KSSQSVLYESRNKNSVM | WASTRES | QQYHRLPLF | n.d. / 3.34 / n.d. | 3.34 | 0/9 |
| KSSQSALYESRNKNSVA | QASTHES | QQYHRLPLS | n.d. / n.d. / 4.44 | 4.44 | 1/9 (4.46) |
| KSSQSVLYESRNKNSVA | WASTHES | QQYHKLVLS | n.d. / n.d. / n.d. | n.d. | 0/9 |
| KSSQSVLYGSRNKNSQA | WASTRES | QQYHRLPHS | n.d. / n.d. / 3.56 | 3.56 | 0/9 |

Picked from the list: the 3 lowest averages where every replicate gave a value.

CDR-L1	CDR-L2	CDR-L3	log10 Kd, replicates	mean, log10 nM	empty controls
KSSQSILYESRNKNSVA	SASTRES	QQYHRLPLS	-0.06 / 0.21 / 0.07	0.07	0/9
KSSQSVLYESRNVNSVA	WASTRVS	QQYMRLPLS	0.19 / 0.51 / 0.36	0.35	1/9 (5.15)
KSSQSVLYESRNRNSVA	WASLRES	QQYHRLPLS	1.09 / 1.27 / 0.96	1.11	1/9 (3.71)